pIC50, pKi: −log10 of the molar value.
Assays:
[1] = test system: PC-3; assay: Cytotoxicity against human PC3 cells […] Staphylococcus saprophyticus nitroreductase NtrB assessed as reduction in cell viability in presence of NADH as cofactor after 48 hrs by SRB assay
[2] = test system: HUVEC; assay: Cytotoxicity against human HUVEC cells assessed as cell viability at 9 to 150 uM after 48 hrs by MTT assay relative to control; type: cell-based
[3] = test system: HUVEC; assay: Cytotoxicity against human HUVEC cells assessed as cell viability at 9 to 150 uM after 24 hrs by MTT assay relative to control; type: cell-based
[4] = biological target: T1, Putative nitroreductase (Staphylococcus saprophyticus subsp. saprophyticus (strain ATCC 15305 / DSM20229 / NCIMB 8711 / NCTC 7292 / S-41), UniProt Q4A0P1); assay: Substrate activity at Staphylococcus saprophyticus nitroreductase expressed in Escherichia coli BL21 (DE3) assessed as retention time by HPLC analysis
[5] = biological target: T1, Putative nitroreductase; assay: Substrate activity at Staphylococcus saprophyticus nitroreductase NtrB assessed as Km using NADH as cofactor in Tris-Cl buffer at pH 7.5 by HPLC analysis
[6] = biological target: T1, Putative nitroreductase; assay: Substrate activity at Staphylococcus saprophyticus nitroreductase NtrB assessed as enzyme specific activity using NADH as cofactor in Tris-Cl buffer at pH 7.5 by HPLC analysis
[7] = biological target: T1, Putative nitroreductase; assay: Substrate activity at Staphylococcus saprophyticus nitroreductase NtrB assessed as Kcat/Km using NADH as cofactor in Tris-Cl buffer at pH 7.5 by HPLC analysis
[8] = biological target: T1, Putative nitroreductase; assay: Substrate activity at Staphylococcus saprophyticus nitroreductase NtrB assessed as Kcat/Km using NADH as cofactor in Tris-Cl buffer at pH 7.5 by HPLC analysis relative to CB1954/NfsB
[9] = biological target: T1, Putative nitroreductase; assay: Substrate activity at Staphylococcus saprophyticus nitroreductase NtrB assessed as Kcat using NADH as cofactor in Tris-Cl buffer at pH 7.5 by HPLC analysis
[10] = biological target: T1, Putative nitroreductase; assay: Binding affinity to Staphylococcus saprophyticus nitroreductase NtrB
[11] = test system: Hep 3B2; assay: Cytotoxicity against human Hep3B cells assessed as cell viability after 48 hrs by MTT assay
[12] = test system: Hep 3B2; assay: Cytotoxicity against human Hep3B cells assessed as cell viability after 24 hrs by MTT assay
[13] = biological target: T1, Putative nitroreductase; assay: Prodrug activation assessed as Ssap-NtrB-mediated metabolite formation measured after 15 mins by LC-MS/MS analysis; details: 0.25 h
[14] = test system: PC-3; assay: Cytotoxicity against human PC3 cells assessed as cell viability after 48 hrs by MTT assay
[15] = test system: HUVEC; assay: Cytotoxicity against human HUVEC cells assessed as cell viability after 48 hrs by MTT assay; type: cell-based

The chains behind the UniProt entries cited, without tags or fusion partners. Residues count along the entry.
UniProt Q4A0P1, 1-208: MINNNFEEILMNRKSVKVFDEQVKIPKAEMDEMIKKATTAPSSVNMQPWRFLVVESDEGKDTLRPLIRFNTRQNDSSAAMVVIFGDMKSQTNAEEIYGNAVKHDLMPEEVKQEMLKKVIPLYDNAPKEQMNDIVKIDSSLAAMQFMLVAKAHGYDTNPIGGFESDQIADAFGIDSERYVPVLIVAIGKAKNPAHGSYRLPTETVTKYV

Structure (SMILES) | pIC50 [1] | Activity [2] | Activity [3] | Retention time [4] | Activity [6] | other results
O=[N+]([O-])c1ccc(N2CCN(c3ccc([N+](=O)[O-])cc3[N+](=O)[O-])CC2)c([N+](=O)[O-])c1 | 8.40 | > 80% | > 80% | 17.6 min |  | 
O=[N+]([O-])c1ccc(Nc2ccc(Nc3ccc([N+](=O)[O-])cc3[N+](=O)[O-])cc2)c([N+](=O)[O-])c1 |  | > 80% | > 80% | 26 min | 0.12 U/mg | Km [5]: 301 µM; Kcat/Km [7]: 53 M⁻¹ s⁻¹; fold change (FC) [8]: 0.01; Kcat [9]: 0.016 s⁻¹
O=[N+]([O-])c1ccc(NCCNc2ccc([N+](=O)[O-])cc2[N+](=O)[O-])c([N+](=O)[O-])c1 | 9.10 | > 80% | > 80% | 23.2 min |  | pKi [10]: 6.55
O=[N+]([O-])c1ccc(Nc2ccc([N+](=O)[O-])cc2[N+](=O)[O-])c(Nc2ccc([N+](=O)[O-])cc2[N+](=O)[O-])c1 | 8.74 | > 80% | > 80% | 21.3 min | 2.12 U/mg | pKi [10]: 6.05
O=[N+]([O-])c1cccc(Nc2cc(Nc3cccc([N+](=O)[O-])c3)c([N+](=O)[O-])cc2[N+](=O)[O-])c1 |  | 51 to 80% | 51 to 80% | 24 min | 0.6 U/mg | pIC50 [11]: 5.32; pIC50 [12]: 5.27
O=[N+]([O-])c1ccc(NC2CCC(Nc3ccc([N+](=O)[O-])cc3[N+](=O)[O-])CC2)c([N+](=O)[O-])c1 (centres undefined) |  | > 80% | > 80% | 27 min |  | 
O=[N+]([O-])c1cccc(Nc2ccc([N+](=O)[O-])cc2[N+](=O)[O-])c1 | 5.29 | > 80% | > 80% | 17.7 min |  | 
O=[N+]([O-])c1ccc(Nc2ccc([N+](=O)[O-])cc2[N+](=O)[O-])cc1 | 5.30 | > 80% | > 80% | 17.7 min |  | Drug metabolism [13]: Metabolite_Detected
O=[N+]([O-])c1ccc(Nc2cccc(Nc3ccc([N+](=O)[O-])cc3[N+](=O)[O-])c2)c([N+](=O)[O-])c1 |  | > 80% | > 80% | 18.8 min |  | 
Nc1ccc(Nc2ccc([N+](=O)[O-])cc2[N+](=O)[O-])c([N+](=O)[O-])c1 | 5.15 | > 80% | > 80% | 21.8 min | 0.16 U/mg | 
O=[N+]([O-])c1ccc(Nc2cc(Nc3ccc([N+](=O)[O-])cc3)c([N+](=O)[O-])cc2[N+](=O)[O-])cc1 |  |  | 51 to 80% | 13.5 min | 0.02 U/mg | pIC50 [11]: 4.91; pIC50 [14]: 4.13; pIC50 [12]: 4.91; pIC50 [15]: 4.45
O=[N+]([O-])c1ccc(NCCCCNc2ccc([N+](=O)[O-])cc2[N+](=O)[O-])c([N+](=O)[O-])c1 | 5.11 | > 80% | > 80% | 25 min | 2.1 U/mg | 
O=[N+]([O-])c1ccc(NC2CCCCC2Nc2ccc([N+](=O)[O-])cc2[N+](=O)[O-])c([N+](=O)[O-])c1 (centres undefined) | 5.24 | > 80% | > 80% | 18.3 min |  | 
O=[N+]([O-])c1ccc(NC2CCCC(Nc3ccc([N+](=O)[O-])cc3[N+](=O)[O-])C2)c([N+](=O)[O-])c1 (centres undefined) | 5.02 | > 80% | > 80% | 19 min |  | 
